According to patent publication US20250268948A1, “COMPOSITIONS AND METHODS FOR TREATING POST ACUTE SEQUELAE OF SARS-COV-2 INFECTION (LONG COVID)” (priority 2022, published 2025):

Columns and labels:
Settings in all cases: read-out: EC50, substance P-induced migration; percent closure at 24 hours; sigmoidal curve fit; FIG. 3
human NSCs = tested on: human NSCs
Description: (§1) FIG. 1 is a microphotograph depicting cell migration using fluorescent readout and cell tracker green as a fluorescent marker of human UC-MSCs. […] The EC50 was determined as a measure of effectiveness of activating agents. […] An initial analysis of the cell free zone using Image J software was used to screen concentrations of activating agents for dose-response determination in further experiments.
(§2) The cell migration assays described above were set up as follows: One million cells/cell line were resuspended in 10 mL MSC-GRO™ serum free, quiescent medium (Vitro Biopharma Cat. No. SC00B17) containing […] mitomycin C (Sigma, Cat. No. M4287) to inhibit proliferation and incubated for 2 hours at room temperature with end-to-end agitation at 7 RPM. In some experiments, curcumin was used at 1 μM to block proliferation. […] A TOPSEAL™ (PerkinElmer, Cat. No. 6050195) covered the plate for live-cell imaging in a BioTek Cytation3 Imaging Reader. […]

[1] = tested on: human pancreatic fibroblasts
Description: as §1, §2

human MSCs = experiment: Stem cell migration assay (percent closure of cell-free zone)
Description: as §1, §2

SMILES: CSCC[C@H](NC(=O)[C@H](CC(C)C)NC(=O)CNC(=O)[C@H](Cc1ccccc1)NC(=O)[C@H](Cc1ccccc1)NC(=O)[C@H](CCC(N)=O)NC(=O)[C@H](CCC(N)=O)NC(=O)[C@@H]1CCCN1C(=O)[C@H](CCCCN)NC(=O)[C@@H]1CCCN1C(=O)[C@@H](N)CCCNC(=N)N)C(N)=O [substance P]
- pEC50 (human NSCs): 8.63
- pEC50 [1]: 8.60
- pEC50 (human MSCs): 8.61

pEC50: −log10 of the molar value.
